ChEMBL document CHEMBL1154346 (Bioorg Med Chem Lett, 2009)

Amino acid sequences for entries named in this document (tags omitted).
UniProt P41146, whole entry: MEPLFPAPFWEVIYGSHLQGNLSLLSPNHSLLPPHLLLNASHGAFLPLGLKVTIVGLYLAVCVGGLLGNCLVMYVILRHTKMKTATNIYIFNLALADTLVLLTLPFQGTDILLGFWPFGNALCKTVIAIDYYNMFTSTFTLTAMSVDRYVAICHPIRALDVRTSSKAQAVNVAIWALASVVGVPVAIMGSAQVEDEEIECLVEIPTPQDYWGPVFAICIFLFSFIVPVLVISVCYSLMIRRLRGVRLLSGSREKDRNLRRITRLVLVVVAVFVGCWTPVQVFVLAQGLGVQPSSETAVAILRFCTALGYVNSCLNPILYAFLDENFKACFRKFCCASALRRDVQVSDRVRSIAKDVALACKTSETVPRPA
UniProt P35372, whole entry: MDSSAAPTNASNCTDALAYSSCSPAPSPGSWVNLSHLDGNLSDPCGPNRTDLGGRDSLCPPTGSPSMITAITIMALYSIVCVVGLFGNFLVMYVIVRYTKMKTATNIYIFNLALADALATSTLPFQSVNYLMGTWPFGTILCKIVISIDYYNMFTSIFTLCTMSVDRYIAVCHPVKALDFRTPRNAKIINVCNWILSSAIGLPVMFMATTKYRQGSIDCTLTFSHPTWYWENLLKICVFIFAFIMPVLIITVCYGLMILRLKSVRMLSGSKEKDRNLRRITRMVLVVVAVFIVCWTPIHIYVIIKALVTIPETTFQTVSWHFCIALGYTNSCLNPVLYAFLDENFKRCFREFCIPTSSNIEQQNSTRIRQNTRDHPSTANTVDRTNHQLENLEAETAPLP
UniProt P41143, whole entry: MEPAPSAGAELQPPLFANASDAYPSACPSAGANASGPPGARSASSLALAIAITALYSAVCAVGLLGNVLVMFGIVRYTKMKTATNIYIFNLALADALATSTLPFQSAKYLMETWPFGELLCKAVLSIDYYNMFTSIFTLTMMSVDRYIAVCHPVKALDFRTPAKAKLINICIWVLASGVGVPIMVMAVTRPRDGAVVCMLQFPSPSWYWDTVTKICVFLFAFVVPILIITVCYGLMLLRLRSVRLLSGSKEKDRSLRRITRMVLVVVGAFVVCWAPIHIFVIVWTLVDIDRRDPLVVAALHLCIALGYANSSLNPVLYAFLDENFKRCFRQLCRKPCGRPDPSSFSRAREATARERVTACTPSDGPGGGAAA
UniProt P41144, whole entry: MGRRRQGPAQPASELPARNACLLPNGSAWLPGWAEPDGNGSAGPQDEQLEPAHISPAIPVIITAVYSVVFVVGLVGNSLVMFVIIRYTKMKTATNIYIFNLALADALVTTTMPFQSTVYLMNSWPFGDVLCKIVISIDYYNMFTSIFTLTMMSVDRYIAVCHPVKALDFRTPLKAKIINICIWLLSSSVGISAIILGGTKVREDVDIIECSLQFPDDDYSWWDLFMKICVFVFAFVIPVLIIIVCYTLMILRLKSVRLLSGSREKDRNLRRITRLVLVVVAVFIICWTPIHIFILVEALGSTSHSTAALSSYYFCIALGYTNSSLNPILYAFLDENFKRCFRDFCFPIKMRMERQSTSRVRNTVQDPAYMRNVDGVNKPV

Columns and labels:
Nociceptin receptor [1] = target: T1, Nociceptin receptor (Homo sapiens, UniProt P41146); assay: Displacement of [3H]nociceptin from human NOP receptor expressed in CHO cells
Mu-type opioid receptor = Mu-type opioid receptor (Homo sapiens, UniProt P35372); assay: Displacement of [3H]diprenorphine from human MOP receptor expressed in CHOK1 cells; conditions: cho-k1
Nociceptin receptor [2] = target: T1, Nociceptin receptor; assay: Agonist activity at human NOP receptor expressed in CHO cells assessed as inhibition of forskolin-stimulated cAMP production after 2 hrs
[3] = target: Delta-type opioid receptor (Homo sapiens, UniProt P41143); assay: Displacement of [3H]naltrindole from human delta opioid receptor expressed in deltaC6 cells; conditions: c6
Mus musculus = assay: Antinociceptive effect in intravenously dosed ICR mouse assessed as reduction in formalin-induced licking activity after 0 to 5 mins
[4] = target: Kappa-type opioid receptor (Cavia porcellus, UniProt P41144); assay: Displacement of [3H]U69593 from KOP receptor in guinea pig cortical tissue

SMILES	Ki (Nociceptin receptor [1]) [nM]	also measured
CNC(=O)Cn1c(=O)n(C2CCN(C3CCCCC3)CC2)c2ccccc21	227	–
CNC(=O)Cn1c(=O)n(C2CCN(Cc3ccc4ccccc4n3)CC2)c2ccccc21	4080	–
CNC(=O)Cn1c(=O)n(C2CCN(Cc3ccc4ccccc4c3)CC2)c2ccccc21	454	–
CNC(=O)Cn1c(=O)n(C2CCN(Cc3ccccc3-c3ccccc3)CC2)c2ccccc21	16	Ki (Mu-type opioid receptor): 3.7 nM
CNC(=O)Cn1c(=O)n(C2CCN(C3CCC(c4ccccc4)CC3)CC2)c2ccccc21 (configuration not stated)	253	–
CNC(=O)Cn1c(=O)n(C2CCN(CCCC(C)C)CC2)c2ccccc21	471	–
CNC(=O)Cn1c(=O)n(C2CCN(Cc3nccc4ccccc34)CC2)c2ccccc21	1050	–
CNC(=O)Cn1c(=O)n(C2CCN(C3CCCC3)CC2)c2ccccc21	470	–
CNC(=O)CN1Cc2ccccc2N(C2CCN(C3CCC(C(C)C)CC3)CC2)C1=O (configuration not stated)	21	Ki (Mu-type opioid receptor): 21 nM
CNC(=O)Cn1c(=O)n(C2CCN(CCC(C)C)CC2)c2ccccc21	1120	–
CNC(=O)Cn1c(=O)n(C2CCN(CC3CCC3)CC2)c2ccccc21	2560	–
CNC(=O)Cn1c(=O)n(C2CCN(C3CCCCCCCCC3)CC2)c2ccccc21	0.2	Ki (Mu-type opioid receptor): 11 nM
CNC(=O)CN1Cc2ccccc2N(C2CCN(C3CCCCCCCCC3)CC2)S1(=O)=O	0.6	IC50 (Nociceptin receptor [2]): 5.2 nM; Ki (Mu-type opioid receptor): 2.2 nM
CNC(=O)Cn1c(=O)n(C2CCN(C3CC4CCC3C4)CC2)c2ccccc21 (configuration not stated)	487	–
CNC(=O)Cn1c(=O)n(C2CCN([C@H]3CC[C@@H](C(C)C)CC3)CC2)c2ccccc21	–	Ki [3]: 7000 nM; ED50 (Mus musculus): 0.23 µmol/kg; Ki [4]: 2700 nM
